Drawing on PMC3794980, “Identification of Conserved and HLA Promiscuous DENV3 T-Cell Epitopes” (PLoS Neglected Tropical Diseases, 2013), this text covers IC50 for ten compounds.

Among the targets are DRB1*1302 (Homo sapiens, UniProt P01903+P01911, A100E/A169T/K41T/L162R/M171V/P40S/Q125H/Q178H/Q39Y/Q99D/R42S/S66N/T262R/V115G/W38E/Y61H); DRB1*0701 (Homo sapiens, UniProt P01903+P01911, A100R/A102G/A103Q/D57E/D86V/E43K/F76Y/K127E/L162R/M171V/P40G/Q125H/Q99D/R33Q/R42Y/R54Q/S133A/S66F/T210M/V115G/Y107V/Y59L/Y89S); DRB1*0301 (Homo sapiens, UniProt P01903+P01911, A100K/A102G/A103R/A169T/F55Y/I96L/K41T/L162R/M171V/P40S/Q125H/Q178H/Q39Y/R42S/S66N/T106N/T262R/W38E/Y61H); DRB1*0802 (Homo sapiens, UniProt P01903+P01911, A100R/A103L/A169T/F76Y/H45Y/I96F/K41T/L162R/M171V/P40S/Q125H/Q178H/Q39Y/Q99D/R218S/R42G/S66Y/V115G/W38E); DRB1*0405 (Homo sapiens, UniProt P01903+P01911, A100R/A169T/D86S/F76Y/I96L/K127E/L162R/M171V/N62H/P40V/Q125Y/R42H/S133A/S149N/S66Y/V115G/V209L/W38E); DRB1*0401 (Homo sapiens, UniProt P01903+P01911, A100K/A169T/F76Y/I96L/K127E/L162R/M171V/N62H/P40V/Q125Y/R42H/S133A/S149N/S66Y/V115G/V209L/W38E); DRB1*1101 (Homo sapiens, UniProt P01903+P01911, A100R/A169T/A87E/I96F/K41T/L162R/M171V/P40S/Q125H/Q178H/Q39Y/Q99D/R42S/S66Y/T262R/V115G/W38E); DRB1*0901 (Homo sapiens, UniProt P01903+P01911, A100R/A103E/D57H/D86V/F55Y/F60I/F76Y/I96F/K127E/L162R/M171V/P40D/Q125H/Q99R/R33Q/R42F/S133A/S66N/T210M/V115G/W38K/Y107V/Y59G/Y89S); DRB1*1501 (Homo sapiens, UniProt P01903+P01911); DRB1*0404 (Homo sapiens, UniProt P01903+P01911, A100R/A169T/F76Y/I96L/K127E/L162R/M171V/N62H/P40V/Q125Y/R42H/S133A/S149N/S66Y/V209L/W38E); DRB1*0101 (Homo sapiens, UniProt P01903+P01911, A100R/D57E/F55L/F60I/F76Y/I96L/L162R/M171V/P40L/Q125E/R42F/V115G/Y59C).

Holding throughout (assay): biochemical
Common to all, as to format: binding

Where [1] appears, read: competitive inhibition of radiolabeled standard peptide, DRB1*0901, read-out: Binding Affinity (nM) DRB1*0901.
Setting [2] is: read-out: Binding Affinity (nM) DRB1*0405.
[3] abbreviates: read-out: Binding Affinity (nM) DRB1*0404.
Where [4] appears, read: competitive inhibition of radiolabeled standard peptide, '-' distinct from ND, read-out: Binding Affinity (nM) DRB1*1302.
[5] abbreviates: read-out: Binding Affinity (nM) DRB1*1101.
Where [6] appears, read: competitive inhibition of radiolabeled standard peptide, '-' distinct from ND, read-out: Binding Affinity (nM) DRB1*0901.

The structures appear in SMILES notation. Read-outs that look alike come from different tables or passages of the source.

As to `CC[C@H](C)[C@H](NC(=O)[C@H](Cc1ccc(O)cc1)NC(=O)CNC(=O)[C@H](CCCNC(=N)N)NC(=O)[C@H](C)N)C(=O)N[C@@H](CO)C(=O)N[C@H](C(=O)N[C@@H](CCCNC(=N)N)C(=O)N[C@H](C(=O)NCC(=O)N[C@@H](CCSC)C(=O)NCC(=O)N[C@@H](CCC(=O)O)C(=O)N[C@@H](C)C(=O)N[C@@H](C)C(=O)O)C(C)C)[C@@H](C)O` [NS3 297-311], the IC50 is 2300 nM on DRB1*1302 (competitive inhibition of radiolabeled standard peptide, DRB1*1302, read-out: Binding Affinity (nM) DRB1*1302); 77 nM on DRB1*0701; 7.29 µM at DRB1*0301; over 20000 nM on DRB1*0802 (read-out: Binding Affinity (nM) DRB1*0802); 90 nM against DRB1*0405; 0.016 µM against DRB1*0401. In addition, the IC50 at DRB1*1101 was 35 nM; on DRB1*0901 (setting [1]), 1910 nM.

Consider `CC(C)C[C@H](NC(=O)[C@H](CCCNC(=N)N)NC(=O)[C@H](CCCCN)NC(=O)CNC(=O)[C@@H](N)CC(N)=O)C(=O)N[C@@H](CCC(=O)O)C(=O)N1CCC[C@H]1C(=O)N[C@@H](CC(N)=O)C(=O)N[C@@H](Cc1c[nH]c2ccccc12)C(=O)N[C@@H](C)C(=O)N[C@@H](CO)C(=O)N[C@H](C(=O)N[C@@H](CCCCN)C(=O)N[C@@H](CCCCN)C(=O)N[C@@H](CC(=O)O)C(=O)O)C(C)C` [NS3 61-75], for which the IC50 against DRB1*0701 was 2350 nM; on DRB1*0301, 1.69 µM; at DRB1*0802, 2070 nM; on DRB1*1501, 1500 nM; at DRB1*0405 (setting [2]), over 20000 nM; against DRB1*0401 it was 4.59 µM. Moreover, the IC50 against DRB1*1101 was 4750 nM; on DRB1*0404 (setting [3]), over 20000 nM.

As for `CC[C@H](C)[C@H](N)C(=O)N[C@H](C(=O)NCC(=O)N[C@H](C(=O)N[C@@H](CC(C)C)C(=O)N[C@@H](CCC(=O)O)C(=O)N[C@@H](CCC(N)=O)C(=O)NCC(=O)N[C@@H](CCCCN)C(=O)N[C@@H](CCCNC(=N)N)C(=O)N[C@H](C(=O)N[C@@H](CC(C)C)C(=O)N[C@H](C(=O)N1CCC[C@H]1C(=O)N[C@@H](CCC(N)=O)C(=O)O)[C@@H](C)O)[C@@H](C)O)C(C)C)[C@@H](C)CC` [NS1 93-107], the IC50 is 483 nM against DRB1*0701; 3.93 µM on DRB1*0301; 1000 nM at DRB1*1501; over 20000 nM on DRB1*0405 (setting [2]); 15.4 µM against DRB1*0401; 16600 nM against DRB1*1101. Besides, at DRB1*0404 (setting [3]), the IC50 is over 20000 nM.

Take `CC(C)C[C@H](NC(=O)[C@H](CCCNC(=N)N)NC(=O)[C@H](CCCCN)NC(=O)[C@@H]1CCCN1C(=O)[C@H](CO)NC(=O)[C@H](CC(=O)O)NC(=O)[C@H](C)NC(=O)[C@H](CCC(N)=O)NC(=O)[C@H](Cc1ccccc1)NC(=O)[C@H](CCCCN)NC(=O)[C@H](Cc1ccc(O)cc1)NC(=O)[C@H](CCC(N)=O)NC(=O)[C@H](CCC(=O)O)NC(=O)[C@@H](N)[C@@H](C)O)C(=O)N[C@@H](C)C(=O)O` [NS1 29-43]: the IC50 was found to be 1710 nM against DRB1*0701; 13600 nM on DRB1*0802; 8360 nM against DRB1*1501; 1510 nM against DRB1*0405; 0.048 µM against DRB1*0401; 1010 nM against DRB1*0901.

In the case of `CC(C)C[C@H](NC(=O)[C@H](CCCNC(=N)N)NC(=O)[C@H](CCCCN)NC(=O)CNC(=O)[C@H](CC(N)=O)NC(=O)[C@H](Cc1ccc(O)cc1)NC(=O)[C@@H](NC(=O)[C@H](CC(C)C)NC(=O)[C@@H](NC(=O)[C@H](C)NC(=O)CNC(=O)[C@H](CCCNC(=N)N)NC(=O)[C@@H](N)[C@@H](C)O)C(C)C)[C@@H](C)O)C(=O)N[C@@H](CCC(=O)O)C(=O)N1CCC[C@H]1C(=O)O` [NS3 53-67], the IC50 against DRB1*0802 is 14700 nM; against DRB1*0401 it was 5.91 µM; at DRB1*0404, 7190 nM.

Consider `CC[C@H](C)[C@H](NC(=O)[C@@H](NC(=O)[C@H](CCCNC(=N)N)NC(=O)[C@H](CCC(=O)O)NC(=O)[C@@H]1CCCN1C(=O)CNC(=O)[C@H](CC(=O)O)NC(=O)[C@@H](NC(=O)[C@H](CC(C)C)NC(=O)[C@@H](NC(=O)[C@@H](NC(=O)[C@@H]1CCCN1C(=O)[C@H](CCCCN)NC(=O)[C@H](CC(C)C)NC(=O)[C@@H](N)CS)C(C)C)[C@@H](C)CC)[C@@H](C)O)C(C)C)C(=O)O` [NS3 429-443], for which the IC50 was 3410 nM on DRB1*0701; 5910 nM against DRB1*1501; 1770 nM against DRB1*0405; 7.32 µM at DRB1*0401; 4930 nM on DRB1*1101; 7160 nM against DRB1*0901.

As for `CC[C@H](C)[C@H](N)C(=O)N[C@@H](Cc1ccccc1)C(=O)N[C@@H](CCSC)C(=O)N[C@H](C(=O)N[C@@H](C)C(=O)N[C@H](C(=O)N1CCC[C@H]1C(=O)N1CCC[C@H]1C(=O)NCC(=O)N[C@H](C(=O)N[C@@H](C)C(=O)N[C@@H](CC(=O)O)C(=O)N[C@@H](C)C(=O)N[C@@H](Cc1ccccc1)C(=O)N1CCC[C@H]1C(=O)O)[C@@H](C)O)[C@@H](C)O)[C@@H](C)O` [NS3 313-327], the IC50 against DRB1*1302 came to 13500 nM; on DRB1*0301 it was 14.7 µM; on DRB1*0802 it was 40 nM; against DRB1*0405, 2250 nM; at DRB1*0401, 0.055 µM; at DRB1*1101, 1050 nM. This compound showed an IC50 at DRB1*0901 of 2010 nM.

For the compound `CC[C@H](C)[C@H](NC(=O)[C@@H](NC(=O)[C@H](CCCCN)NC(=O)[C@H](CCCCN)NC(=O)CNC(=O)[C@H](CC(N)=O)NC(=O)[C@H](CCCCN)NC(=O)[C@H](CCCNC(=N)N)NC(=O)[C@H](CC(C)C)NC(=O)[C@H](CS)NC(=O)[C@H](CC(N)=O)NC(=O)[C@H](C)N)C(C)C)C(=O)N[C@@H](CCC(N)=O)C(=O)N[C@@H](CC(C)C)C(=O)N[C@@H](CO)C(=O)O` [NS3 373-387], the IC50 was determined as 11.4 µM at DRB1*0301; 16100 nM against DRB1*0802; 5300 nM on DRB1*0405; 2.75 µM against DRB1*0401; 3570 nM at DRB1*0901 (setting [1]); 11300 nM on DRB1*0404.

`CC[C@H](C)[C@H](NC(=O)[C@@H](NC(=O)CNC(=O)[C@H](Cc1c[nH]cn1)NC(=O)[C@H](CCC(N)=O)NC(=O)[C@@H](NC(=O)[C@H](CCC(=O)O)NC(=O)[C@H](CO)NC(=O)[C@@H](NC(=O)[C@H](CCC(=O)O)NC(=O)[C@H](CCCCN)NC(=O)[C@H](CCCCN)NC(=O)[C@@H](N)CC(C)C)C(C)C)[C@@H](C)O)[C@@H](C)O)C(=O)N[C@@H](CC(C)C)C(=O)N[C@H](C(=O)O)C(C)C` [Envelope 306-320]: the IC50 at DRB1*1302 (setting [4]) is 6840 nM; at DRB1*0701 it was 1440 nM; against DRB1*0301, 5.58 µM; at DRB1*0802, 1860 nM; at DRB1*1501 (read-out: Binding Affinity (nM) DRB1*1501), over 20000 nM; at DRB1*0405 (setting [2]) it was over 20000 nM. Also, the IC50 at DRB1*1101 (setting [5]) is over 20000 nM; on DRB1*0101, 6.55 µM; at DRB1*0901 (setting [6]) it was 13300 nM; against DRB1*0404, 16400 nM.

Turning to `CC[C@H](C)[C@H](NC(=O)[C@H](CCSC)NC(=O)[C@H](CC(=O)O)NC(=O)[C@H](CO)NC(=O)[C@H](CCC(=O)O)NC(=O)[C@H](CC(C)C)NC(=O)[C@@H](NC(=O)CNC(=O)[C@H](CC(N)=O)NC(=O)[C@@H](N)CO)C(C)C)C(=O)N[C@H](C(=O)N1CCC[C@H]1C(=O)N[C@@H](CCCCN)C(=O)N[C@@H](CO)C(=O)N[C@@H](CC(C)C)C(=O)O)[C@@H](C)CC` [NS1 233-247], the IC50 at DRB1*1302 (setting [4]) is 1660 nM; at DRB1*0701 (read-out: Binding Affinity (nM) DRB1*0701), over 20000 nM; against DRB1*0301, 0.073 µM; against DRB1*0802, 2440 nM; against DRB1*1501, 5090 nM; against DRB1*0405 it was 3620 nM. Further, the IC50 on DRB1*1101 (setting [5]) was over 20000 nM; against DRB1*0101 it was 4.3 µM; on DRB1*0901 (setting [6]), 17300 nM; on DRB1*0404, 5940 nM.
